What was measured:
MMP-1 = target: T1, MMP-1 (Homo sapiens, UniProt P03956); test: MMP-1 inhibition (thiopeptide or fluorescent peptide substrate); format: biochemical
T1 sequence (P03956 100-469): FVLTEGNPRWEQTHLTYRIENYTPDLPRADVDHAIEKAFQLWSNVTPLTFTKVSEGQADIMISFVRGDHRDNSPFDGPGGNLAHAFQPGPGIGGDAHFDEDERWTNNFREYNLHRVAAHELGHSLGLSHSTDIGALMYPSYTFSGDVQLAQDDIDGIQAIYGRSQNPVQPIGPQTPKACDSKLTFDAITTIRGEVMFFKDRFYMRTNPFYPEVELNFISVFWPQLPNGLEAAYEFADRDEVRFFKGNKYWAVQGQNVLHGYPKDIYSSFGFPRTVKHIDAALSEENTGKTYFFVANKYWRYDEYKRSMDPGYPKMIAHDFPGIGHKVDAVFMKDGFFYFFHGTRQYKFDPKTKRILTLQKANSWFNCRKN

THP-1 cells = test: THP-1 Soluble Protein Assay (LPS-stimulated; ELISA of TNF-a, TNF-R p75/80, TNF-R p55/60, IL-8); format: cell-based; settings: Homo sapiens, THP-1, read-out: THP % Inhibition @ 3µM

SMILES | IC50 (MMP-1) | inhibition at 3 µM (THP-1 cells)
CC#CCOc1ccc(S(=O)(=O)N(C)C(CSCc2cccnc2)C(=O)NO)cc1 (centres unmarked) [Example 155, 2-[(4-But-2-ynyloxy-benenesulfonyl)-methyl-amino]-N-hydroxy-3-(pyridin-3-ylmethylsulfanyl)-butyramide] | 61 nM | 
CC#CCOc1ccc(S(=O)(=O)N2CCN(Cc3ccccc3)CCC2C(=O)NO)cc1 (centres unmarked) [Example 290, 1-Benzyl-4-{[4-(2-butynyloxy)phenyl]sulfonyl}-N-hydroxy-1,4-diazepane-5-carboxamide] |  | 45%

From patent publication EP1144368B1, “ACETYLENIC ALPHA-AMINO ACID-BASED SULFONAMIDE HYDROXAMIC ACID TACE INHIBITORS” (priority 1999, dated 2000)
